Source: paper PMC10761396, “Evaluation of new alternative methods for the identification of estrogenic, androgenic and steroidogenic effects: a comparative in vitro/in silico study” (Archives of Toxicology, 2023)

The chains behind the UniProt entries cited, without tags or fusion partners. Where a name states a change or a piece, a line headed by the entry shows the natural chain unless it says otherwise.
UniProt P11511: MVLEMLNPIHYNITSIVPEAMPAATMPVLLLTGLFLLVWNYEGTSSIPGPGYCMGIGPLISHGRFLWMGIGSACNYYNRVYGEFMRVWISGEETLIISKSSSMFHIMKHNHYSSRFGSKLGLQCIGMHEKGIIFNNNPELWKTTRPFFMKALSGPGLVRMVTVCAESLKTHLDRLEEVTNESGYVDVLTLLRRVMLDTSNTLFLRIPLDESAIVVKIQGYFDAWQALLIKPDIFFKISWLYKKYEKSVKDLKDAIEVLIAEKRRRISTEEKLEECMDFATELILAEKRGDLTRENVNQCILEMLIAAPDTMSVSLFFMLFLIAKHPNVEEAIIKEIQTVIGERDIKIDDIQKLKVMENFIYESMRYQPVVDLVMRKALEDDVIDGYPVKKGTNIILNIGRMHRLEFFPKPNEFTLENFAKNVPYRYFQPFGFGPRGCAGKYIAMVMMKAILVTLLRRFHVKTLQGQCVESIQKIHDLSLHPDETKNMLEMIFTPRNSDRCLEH

Legend:
rats = test system: rats; parameters: method as in George et al. [2001]; conditions: ref George et al. [2001], cited from earlier work
[1] = target: human recombinant CYP19A1 (Homo sapiens, UniProt P11511); assay: Recombinant enzyme aromatase activity inhibition assay; format: biochemical; conditions: read-out: IC50 of aromatase inhibition; follow-up dose–response assay
Experimental: An aromatase inhibition assay was also included in the in vitro assay panel. This enzyme – otherwise known as CYP19A1 - is responsible for converting androgens into estrogens (Blakemore and Naftolin 2016; Bulun 2014); therefore, chemicals that inhibit aromatase activity can lead to reduced estrogen production, which can affect reproductive and developmental processes (Kragie 2002; Tiboni and Ponzano 2016).
The metabolite, estradiol, was measured by time-resolved fluorescence according to the method described previously (Ji et al. 2014). Enzyme inhibition was calculated as a % inhibition of control enzyme activity.

Substance: isoeugenol
- maternal toxicity (rats; 250–1000 mg/kg/day): some maternal toxicity at all does
- dose with no treatment-related effects on foetuses (rats): up to 500 mg/kg/day
- IC50 [1]: 61 µM
